According to ChEMBL document CHEMBL1122241, “A simplified high-pressure liquid chromatography method for determining lipophilicity for structure-activity relationships” (J Med Chem, 1983):

Assay: pKa value is evaluated
Assay type: physicochemical

## Nc1ccc(S(=O)(=O)Nc2ncccn2)cc1 [SULFADIAZINE]
  pKa: 6.52
